Key:
human 5-HT2BR = human 5-HT2BR (Homo sapiens, UniProt P41595); test: radioligand binding (NIMH PDSP); details: read-out: Ki 5-HT2BR; recombinant, stably expressed human receptor; clemizole analogues
human 5-HT2CR = human 5-HT2CR (Homo sapiens, UniProt P28335); test: radioligand binding (NIMH PDSP); details: read-out: Ki 5-HT2CR; recombinant, stably expressed human receptor; clemizole analogues
human 5-HT2AR = human 5-HT2AR (Homo sapiens, UniProt P28223); test: radioligand binding (NIMH PDSP); details: read-out: Ki 5-HT2AR; recombinant, stably expressed human receptor; clemizole analogues
human 5-HT2R = test: radioligand binding (NIMH PDSP), any 5-HT2R subtype; details: 5-HT2AR, 5-HT2BR, 5-HT2CR

The chains behind the UniProt entries cited, without tags or fusion partners. Residues count along the entry.
UniProt P41595, whole entry: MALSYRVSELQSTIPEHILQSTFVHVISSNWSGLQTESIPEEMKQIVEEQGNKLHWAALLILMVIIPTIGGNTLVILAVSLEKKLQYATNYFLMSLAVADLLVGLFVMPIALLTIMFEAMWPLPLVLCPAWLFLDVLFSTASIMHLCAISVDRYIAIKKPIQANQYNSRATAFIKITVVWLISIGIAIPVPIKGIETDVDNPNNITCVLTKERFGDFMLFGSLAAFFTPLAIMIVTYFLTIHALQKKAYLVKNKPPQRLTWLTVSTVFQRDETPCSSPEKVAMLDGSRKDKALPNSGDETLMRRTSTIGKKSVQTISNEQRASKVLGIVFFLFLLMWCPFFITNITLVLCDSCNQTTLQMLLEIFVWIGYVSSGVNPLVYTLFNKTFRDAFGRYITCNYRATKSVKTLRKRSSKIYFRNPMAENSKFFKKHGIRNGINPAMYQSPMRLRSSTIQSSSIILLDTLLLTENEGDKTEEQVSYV
UniProt P28335, 33-458 limits assumed: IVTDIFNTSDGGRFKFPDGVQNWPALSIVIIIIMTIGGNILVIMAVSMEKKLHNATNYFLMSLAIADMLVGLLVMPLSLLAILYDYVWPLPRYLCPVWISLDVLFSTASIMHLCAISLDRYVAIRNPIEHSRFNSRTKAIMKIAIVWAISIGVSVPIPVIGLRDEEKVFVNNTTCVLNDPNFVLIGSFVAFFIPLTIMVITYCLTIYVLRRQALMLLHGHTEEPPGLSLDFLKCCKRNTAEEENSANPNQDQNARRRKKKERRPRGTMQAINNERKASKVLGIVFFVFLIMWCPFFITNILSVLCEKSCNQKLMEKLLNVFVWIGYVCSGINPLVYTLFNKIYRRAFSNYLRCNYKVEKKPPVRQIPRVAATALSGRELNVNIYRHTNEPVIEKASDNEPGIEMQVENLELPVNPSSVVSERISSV
UniProt P28223, whole entry: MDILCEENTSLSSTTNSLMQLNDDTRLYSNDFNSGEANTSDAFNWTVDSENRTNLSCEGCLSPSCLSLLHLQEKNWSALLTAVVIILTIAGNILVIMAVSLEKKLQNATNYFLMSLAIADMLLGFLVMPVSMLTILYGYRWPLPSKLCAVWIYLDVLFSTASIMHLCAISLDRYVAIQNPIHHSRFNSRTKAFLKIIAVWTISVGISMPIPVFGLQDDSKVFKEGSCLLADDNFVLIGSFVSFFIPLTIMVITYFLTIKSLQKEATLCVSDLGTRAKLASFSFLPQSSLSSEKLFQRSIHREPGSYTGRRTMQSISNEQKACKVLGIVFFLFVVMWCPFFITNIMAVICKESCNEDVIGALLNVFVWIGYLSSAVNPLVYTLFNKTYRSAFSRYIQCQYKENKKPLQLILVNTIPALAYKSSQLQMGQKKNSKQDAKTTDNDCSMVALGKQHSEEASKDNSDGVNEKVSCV

`N#Cc1cccc(Cn2c(CN3CCCC3)nc3ccccc32)c1` was tested. Which Ki (human 5-HT2BR) did it give?
The Ki was over 10 µM.

What about the Ki (human 5-HT2CR) of the same compound?
Its Ki is over 10 µM.

What about the Ki (human 5-HT2AR) of the same compound?
The Ki was over 10 µM.

What about the “binding to any human 5-HT2R” value (human 5-HT2R) of the same compound?
Its value is “no significant binding”.
